{"sequences": {"note": "Sequences of proteins named here, by UniProt entry; tags and fusion partners are left off.", "UniProt O00482, whole entry": "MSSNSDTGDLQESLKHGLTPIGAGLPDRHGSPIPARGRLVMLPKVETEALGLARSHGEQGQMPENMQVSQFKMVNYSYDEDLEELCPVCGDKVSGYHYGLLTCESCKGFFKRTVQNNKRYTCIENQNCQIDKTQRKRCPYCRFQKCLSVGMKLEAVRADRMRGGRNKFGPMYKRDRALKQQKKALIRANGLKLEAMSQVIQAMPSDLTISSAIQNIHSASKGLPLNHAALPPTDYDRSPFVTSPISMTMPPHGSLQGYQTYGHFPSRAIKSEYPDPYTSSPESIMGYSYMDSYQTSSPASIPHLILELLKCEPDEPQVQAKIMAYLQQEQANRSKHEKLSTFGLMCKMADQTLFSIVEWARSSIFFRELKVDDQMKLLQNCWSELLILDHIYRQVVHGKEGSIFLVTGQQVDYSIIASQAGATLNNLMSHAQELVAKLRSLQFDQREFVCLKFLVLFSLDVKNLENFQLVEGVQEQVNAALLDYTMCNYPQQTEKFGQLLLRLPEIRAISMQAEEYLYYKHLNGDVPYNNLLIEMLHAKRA"}, "source": "PubChem BioAssay AID602396", "about": "(The Scripps Research Institute Molecular Screening Center, 2012)", "note": "This is a selection; strong and weak results do not stand in their true shares. The source made the active and inactive calls.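 How the source made its calls: active means inhibition above the mean inhibition of all tested compounds plus 3 SD (cut at about 73% in these data); inactive means the rest.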", "data": [{"molecular_target": "Nuclear receptor subfamily 5 group A member 2 (Homo sapiens) (UniProt O00482)", "experiment": "reduction of NR5A2-driven StAR reporter activity – cell-based, luminescence, HEK293T, StAR-luciferase reporter, primary screen (AID 602396);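 further: 0% = DMSO wells and 100% = reporter-only cells lacking LRH-1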", "settings": "LRH-1 transfected, 24 h, at 3.6 µM, stronger effect = higher value", "values": [{"smiles": "CCC(=O)N(c1ccccc1)C1(COC)CCN(CCc2cccs2)CC1", "inhibition": "inactive: 1.92%"}, {"smiles": "CCC(=O)N(c1ccccc1)C1(COC)CCN(CCn2nnn(CC)c2=O)CC1", "inhibition": "inactive: 2.63%"}]}]}
